Tests used:
[1] = tested on: porcine intestinal tissue; assay: Ex vivo intestinal permeation study in Franz diffusion cells; format: in vitro ADME, pig; conditions: Franz diffusion cell, 150 µg FD70 applied apically (100 µg/mL), with PE:insulin MCs or solutions, 3 h, SEC-HPLC fluorescence, n = 3
[2] = in vivo; cited from earlier work
From the text: For overcoming the absorption barrier, PEs have been developed and studied both for paracellular enhancement by tight junction opening and transcellular e ...

Substance	FD70 permeation profiles across porcine intestinal tissue [1]	oral bioavailability [2]
70 kDa fluorescein isothiocyanate-dextran [FD70]	no significant differences	–
desmopressin	–	0.1–1.2%

— publication PMC7023435 (Pharmaceutics, 2020)
